These results are taken from ChEMBL document CHEMBL2086370 (J Med Chem, 2012).

By UniProt entry, the sequences of proteins in these tests, tags left out. Where a name states a change or a piece, a line headed by the entry shows the natural chain unless it says otherwise.
UniProt P41146: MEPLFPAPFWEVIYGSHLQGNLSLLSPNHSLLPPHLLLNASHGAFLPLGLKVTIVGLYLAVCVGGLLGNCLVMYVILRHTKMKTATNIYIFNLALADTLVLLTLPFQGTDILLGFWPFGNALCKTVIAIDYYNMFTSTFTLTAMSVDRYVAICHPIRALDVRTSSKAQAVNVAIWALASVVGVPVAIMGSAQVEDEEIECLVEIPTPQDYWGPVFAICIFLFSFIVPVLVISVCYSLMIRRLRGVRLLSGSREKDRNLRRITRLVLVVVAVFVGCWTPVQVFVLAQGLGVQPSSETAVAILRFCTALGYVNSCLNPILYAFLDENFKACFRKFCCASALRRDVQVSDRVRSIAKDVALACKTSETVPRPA

Assay [1] concerns the target Nociceptin receptor (Homo sapiens) (UniProt P41146). In words: Antagonist at against human cloned NOP receptor expressed in CHO cell membranes after 30 mins by [35S]GTPgammaS binding assay. On the technique in general: GTPγS is a poorly hydrolysed GTP analogue; its binding reports G protein activation.
The test system of a further assay is Rattus norvegicus. Kind of assay: In vivo receptor occupancy of NOP receptor in po dosed Harlan Sprague-Dawley rat hypothalamus co-administered with unlabeled tracer compound at 3 ug/kg, iv. In kind it is functional.
The target of assay [2] is Nociceptin receptor (Homo sapiens) (UniProt P41146). Kind of assay: Agonist activity at human cloned NOP receptor expressed in CHO cell membranes after 30 mins by [35S]GTPgammaS binding assay relative to nociceptin.

As a reminder, the Kb is the equilibrium dissociation constant of an antagonist, usually derived from a functional assay. Higher therefore signals lower antagonist affinity.

`CN(C)C(=O)C(Cc1ccccc1)CN1CCC2(CC1)OCCc1ccsc12` (stereo not drawn): the Kb in assay [1] came out at 4.12 nM. This lies in the single-digit nanomolar range.

On to `CNC(=O)C(Cc1ccccc1Cl)CN1CCC2(CC1)OCCc1cc(Cl)sc12` (stereo not drawn), for which the Kb in assay [1] amounted to 0.412 nM.

In turn, `FCC(Cc1ccccc1Cl)CN1CCC2(CC1)OCCc1ccsc12` (stereo not drawn) showed a Kb in assay [1] greater than 10 nM.

Take `Cc1cccc2c1CC[C@H](CN1CCC(c3c(Cl)cccc3Cl)CC1)C[C@@H]2O`: the Activity entry in the assay on Rattus norvegicus was “Dose-dependent effect”.

`CN(C)C(=O)C(Cc1ccccc1F)CN1CCC2(CC1)OCCc1cc(Cl)sc12.O=C(O)C(O)C(O)C(=O)O` (single isomer, unassigned; (+)) gave a Kb in assay [1] of 0.239 nM. In other words, the sub-nanomolar range.

`NC(=O)C(Cc1ccccc1Cl)CN1CCC2(CC1)OCCc1cc(Cl)sc12` (stereo not drawn): the Kb in assay [1] amounted to 0.167 nM.

The compound `CN(C)C(=O)[C@@H](Cc1ccccc1F)CN1CCC2(CC1)OCCc1cc(F)sc12.O=C(O)C(O)C(O)C(=O)O` displayed a Kb in assay [1] of 0.305 nM.

As to `CN(C)C(=O)C(Cc1ccccc1Cl)CN1CCC2(CC1)OCCc1cc(Cl)sc12.O=C(O)C(O)C(O)C(=O)O` (single isomer, unassigned; (-)), the Kb in assay [1] is 0.543 nM.

With `CN(C)C(=O)C(Cc1ccccc1F)CN1CCC2(CC1)OCCc1ccsc12` (racemic), in assay [1], the Kb stood at 1.71 nM.

In assay [1], `CN(C(=O)C(Cc1ccccc1F)CN1CCC2(CC1)OCCc1cc(F)sc12)C1CC1` (single isomer, unassigned; (-)) came in with a Kb of 0.085 nM.

The compound `CN(C)C(=O)C(Cc1ccccc1Cl)CN1CCC2(CC1)OCCc1cc(F)sc12` (single isomer, unassigned; (+)) registered a Kb in assay [1] of 0.161 nM. Compared with the last compound, the Kb is about 1.9-fold higher.

In assay [1], `CN(C)C(=O)C(Cc1ccccc1F)CN1CCC2(CC1)OCCc1cc(F)sc12` (stereo not drawn) showed a Kb of 0.698 nM.

Take `CN(C)C(=O)C(Cc1c(F)cccc1F)CN1CCC2(CC1)OCCc1ccsc12` (racemic): the Kb in assay [1] was greater than 10 nM.

`COCC(Cc1ccccc1Cl)CN1CCC2(CC1)OCCc1ccsc12` (stereo not drawn) returned a Kb in assay [1] greater than 40 nM.

Compound `CN(C(=O)C(Cc1ccccc1Cl)CN1CCC2(CC1)OCCc1cc(F)sc12)C1CC1` (single isomer, unassigned; (-)) gave a Kb in assay [1] of 0.251 nM.

With `CN(C)C(=O)C(CN1CCC2(CC1)OCCc1cc(F)sc12)Cn1cccn1.O=C(O)C(O)C(O)C(=O)O` (single isomer, unassigned; (+)), in assay [1], the Kb stood at 0.225 nM.

In assay [1], `CN(C)C(=O)C(Cc1ccccn1)CN1CCC2(CC1)OCCc1ccsc12` (stereo not drawn) returned a Kb greater than 10 nM.

As to `CNC(=O)C(Cc1ccccc1F)CN1CCC2(CC1)OCCc1cc(Cl)sc12` (single isomer, unassigned; (-)), the Kb in assay [1] came out at 0.288 nM.

The compound `COc1ccccc1CC(CN1CCC2(CC1)OCCc1ccsc12)C(=O)N(C)C` (stereo not drawn) registered a Kb in assay [1] greater than 10 nM.

Compound `COC(=O)CN1CN(c2ccccc2)C2(CCN(Cc3cccc4ccccc34)CC2)C1=O` displayed an Efficacy in assay [2] of 103%.

`CN(C)C(=O)C(Cc1cscn1)CN1CCC2(CC1)OCc1ccc(F)cc12` (stereo not drawn) showed a Kb in assay [1] of 1.22 nM.

In assay [1], `N#CC(Cc1ccccc1Cl)CN1CCC2(CC1)OCCc1ccsc12` (stereo not drawn) yielded a Kb greater than 40 nM.

In the case of `ClCC(Cc1ccccc1Cl)CN1CCC2(CC1)OCCc1ccsc12` (stereo not drawn), the Kb in assay [1] is greater than 40 nM.
